Source: ChEMBL document CHEMBL5543134, “Channeling Nicotinamide Phosphoribosyltransferase (NAMPT) to Address Life and Death” (J Med Chem, 2024)

Assay: in vivo
Conditions: rat, po

bioavailability: 47%
Compound: N#Cc1cc(-c2ccnc(Nc3ccc4c(c3)CC(=O)N4)n2)ccc1N1CCCC1
